Drawing on patent US11001569B2, “6-membered heteroaromatic substituted cyanoindoline derivatives as NIK inhibitors” (Janssen Pharmaceutica NV, priority 2016, dated 2021), this text covers IC50 for 1 molecule.

Chains of the proteins cited; added tags and fusions are not shown.
UniProt Q99558, whole entry: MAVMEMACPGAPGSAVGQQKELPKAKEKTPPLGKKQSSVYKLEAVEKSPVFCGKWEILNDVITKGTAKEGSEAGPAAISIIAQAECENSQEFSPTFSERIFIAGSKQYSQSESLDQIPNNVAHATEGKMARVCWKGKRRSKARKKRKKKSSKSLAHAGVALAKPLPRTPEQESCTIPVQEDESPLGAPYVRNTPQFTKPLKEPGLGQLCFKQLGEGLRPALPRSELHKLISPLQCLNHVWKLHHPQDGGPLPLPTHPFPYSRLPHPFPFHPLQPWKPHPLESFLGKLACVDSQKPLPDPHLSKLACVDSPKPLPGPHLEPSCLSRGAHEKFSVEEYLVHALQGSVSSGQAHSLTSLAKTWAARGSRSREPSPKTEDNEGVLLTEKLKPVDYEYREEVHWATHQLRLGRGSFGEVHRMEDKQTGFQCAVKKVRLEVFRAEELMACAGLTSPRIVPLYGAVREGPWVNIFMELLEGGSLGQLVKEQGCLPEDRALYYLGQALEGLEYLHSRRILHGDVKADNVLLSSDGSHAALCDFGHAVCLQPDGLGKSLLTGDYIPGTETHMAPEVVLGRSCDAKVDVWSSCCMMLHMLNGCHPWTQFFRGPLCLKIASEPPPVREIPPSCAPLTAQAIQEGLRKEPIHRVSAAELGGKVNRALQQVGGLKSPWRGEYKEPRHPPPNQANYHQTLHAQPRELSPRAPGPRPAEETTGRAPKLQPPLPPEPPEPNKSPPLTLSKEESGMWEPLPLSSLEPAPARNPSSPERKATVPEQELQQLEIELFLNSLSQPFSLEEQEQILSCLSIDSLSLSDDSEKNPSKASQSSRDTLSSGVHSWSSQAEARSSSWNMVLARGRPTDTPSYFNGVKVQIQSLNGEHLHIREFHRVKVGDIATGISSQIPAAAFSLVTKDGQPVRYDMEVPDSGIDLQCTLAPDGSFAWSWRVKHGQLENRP

Assay [1] deals with JJN-3 (NIK translocated) multiple myeloma cells. Description: Antiproliferative activity on JJN-3 multiple myeloma cells (CellTiter-Glo). To be noted: read-out: JJN-3 Proliferation inhibition (IC50 (nM)), JJN-3 (NIK translocated) cells, 96 hr treatment, averaged values.
Assay [2] deals with recombinant human NF-kappaB-inducing Kinase (NIK/MAP3K14) (Homo sapiens, UniProt Q99558). Description: Inhibition of auto-phosphorylation of recombinant human NIK/MAP3K14 activity (AlphaScreen). The conditions noted are these: read-out: Auto-phosphorylation inhibition of NIK (IC50 (nM)), 25 microM ATP, averaged over all measurements on all batches.
The subject of assay [3] is KMS12-BM (NIK WT) multiple myeloma cells. Description: Antiproliferative activity on KMS12-BM multiple myeloma cells (CellTiter-Glo). The conditions noted are these: read-out: KMS-12 Proliferation inhibition (IC50 (nM)), 96 hr treatment, averaged values. (In general: In ATP-based viability assays light output follows the ATP content of the culture.)

For the molecule `CC(C)Oc1ncccc1Nc1nccc(-c2cc(C#N)c3c(c2)[C@@](C)(CO)CN3)n1`, the IC50 was determined as 1550 nM in assay [1], 6.6 nM in assay [2] and 7240 nM in assay [3].
